Experimental data taken from ChEMBL document CHEMBL6109156, “Discovery of Dual PD-L1/HDAC3 Inhibitors for Tumor Immunotherapy” (J Med Chem, 2025).

Columns and labels:
Homo sapiens [1] = species: Homo sapiens; assay: Selectivity index, ratio of IC50 for inhibition of human recombinant HDAC3 using Ac-Leu-Gly-Lys (Ac)-AMC as substrate to IC50 for inhibition of human recombinant HDAC1 using Ac-Leu-Gly-Lys (Ac)-AMC as substrate
Homo sapiens [2] = species: Homo sapiens; assay: Selectivity index, ratio of IC50 for inhibition of human recombinant HDAC3 using Ac-Leu-Gly-Lys (Ac)-AMC as substrate to IC50 for inhibition of human recombinant HDAC6 using Ac-Leu-Gly-Lys (Ac)-AMC as substrate
Homo sapiens [3] = species: Homo sapiens; assay: Selectivity index, ratio of IC50 for inhibition of human recombinant HDAC3 using Ac-Leu-Gly-Lys (Tfa)-AMC as substrate to IC50 for inhibition of human recombinant HDAC8 using Ac-Leu-Gly-Lys (Ac)-AMC as substrate

CCCNNC(=O)c1cnc(NCCNCc2ccc(-c3cccc(-c4ccccc4)c3C)nc2OC)cn1
Ratio IC50 (Homo sapiens [1]): > 13 | Ratio IC50 (Homo sapiens [2]): > 13 | Ratio IC50 (Homo sapiens [3]): > 13

CCCNNC(=O)CCCNCc1ccc(-c2cccc(-c3ccccc3)c2C)nc1OC
Ratio IC50 (Homo sapiens [1]): > 21 | Ratio IC50 (Homo sapiens [2]): > 21 | Ratio IC50 (Homo sapiens [3]): > 21
